# Assay results from PubChem BioAssay (NCI).
# Where “and” joins values, the source holds several entries; their conditions need not be identical. Equal values may be shown once. This is a selection; strong and weak results do not stand in their true shares.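 Testing used 96-well plates and a 48-hour single-concentration exposure. Example: -40 means 40% of the starting cells died.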 Some salts and complexes are drawn in separate pieces, as the source files them; their charges need not balance. Calls of active or inactive are those of the source. How the source made its calls: active means growth percent below 10; inactive means the rest.
# Tests used:
# Assay in all cases: NCI-60 one-dose screen, 48 h (100 = growth as untreated, 0 = no growth, -100 = all killed)
# Details in all cases: 10 µM
# NCI-H23 lung = test system: NCI-H23 lung
# NCI-H226 lung = test system: NCI-H226 lung
# NCI-H322M lung = test system: NCI-H322M lung
# HOP-62 NSCLC = test system: HOP-62 NSCLC
# NCI-H460 lung = test system: NCI-H460 lung
# HOP-92 NSCLC = test system: HOP-92 NSCLC
# NCI-H522 lung = test system: NCI-H522 lung
# A549/ATCC NSCLC = test system: A549/ATCC NSCLC
# 786-0 renal = test system: 786-0 renal
# COLO 205 colon = test system: COLO 205 colon
Compound,growth (NCI-H23 lung),growth (NCI-H226 lung),growth (NCI-H322M lung),growth (HOP-62 NSCLC),growth (NCI-H460 lung),growth (HOP-92 NSCLC),growth (NCI-H522 lung),growth (A549/ATCC NSCLC),growth (786-0 renal),growth (COLO 205 colon)
O=C(Cl)c1c([N+](=O)[O-])cc([N+](=O)[O-])cc1[N+](=O)[O-],inactive: 78%,inactive: 89.3%,inactive: 88.7%,inactive: 72.9%,inactive: 90.1%,inactive: 100%,inactive: 35.6%,inactive: 93.9%,inactive: 75.1%,inactive: 18.4%
CP(=O)(OCCCl)N(CCCl)CCCl (stereo not drawn),inactive: 103%,inactive: 101%,inactive: 113%,inactive: 92.5%,inactive: 104%,inactive: 97%,inactive: 60.8%,inactive: 102%,inactive: 100%,inactive: 116%
Nc1cc([N+](=O)[O-])cc([N+](=O)[O-])c1O,inactive: 98.8% and inactive: 98.9%,inactive: 108% and inactive: 98.3%,inactive: 127% and inactive: 111%,inactive: 103% and inactive: 90.6%,inactive: 139% and inactive: 104%,inactive: 91.8% and inactive: 87.4%,inactive: 108% and inactive: 87.1%,inactive: 105% and inactive: 81.2%,inactive: 111% and inactive: 96.2%,inactive: 116% and inactive: 106%
CCOC(=O)Nc1c([N+](=O)[O-])cc([N+](=O)[O-])cc1[N+](=O)[O-],inactive: 97.2%,inactive: 107%,inactive: 112%,inactive: 107%,inactive: 102%,inactive: 97%,inactive: 67.3%,inactive: 93.7%,inactive: 117%,inactive: 95%
CCOP(=O)(CC)OCC,inactive: 103%,inactive: 98.3%,inactive: 113%,inactive: 101%,inactive: 101%,inactive: 93.3%,inactive: 114%,inactive: 103%,inactive: 92.1%,inactive: 111%
CC(C)N(CCCl)C(C)C,inactive: 99.1%,inactive: 105%,inactive: 120%,inactive: 118%,inactive: 105%,inactive: 93.9%,inactive: 104%,inactive: 93%,inactive: 108%,inactive: 119%
Clc1ccccc1SCCBr,inactive: 99.7%,inactive: 99.8%,inactive: 104%,inactive: 103%,inactive: 100%,inactive: 92.3%,inactive: 100%,inactive: 104%,inactive: 103%,–
CN/C(N)=N/[N+](=O)[O-],inactive: 104%,inactive: 94.8%,inactive: 116%,inactive: 110%,inactive: 110%,inactive: 86.7%,inactive: 97.4%,inactive: 106%,inactive: 102%,inactive: 113%
Cc1c([N+](=O)[O-])c(C)c([N+](=O)[O-])c(C)c1[N+](=O)[O-],inactive: 103%,inactive: 117%,inactive: 111%,inactive: 105%,inactive: 111%,inactive: 103%,inactive: 112%,inactive: 110%,inactive: 112%,inactive: 135%
CP(=S)(Cl)N(CCCl)CCCl (stereo not drawn),inactive: 108%,inactive: 97%,inactive: 100%,inactive: 102%,inactive: 106%,inactive: 86.8%,inactive: 84.6%,inactive: 93.3%,inactive: 103%,inactive: 121%
O=[N+]([O-])OCCOc1ccc([N+](=O)[O-])cc1[N+](=O)[O-],inactive: 110%,inactive: 99.8%,inactive: 111%,inactive: 105%,inactive: 107%,inactive: 93.7%,inactive: 86.8%,inactive: 99.7%,inactive: 110%,inactive: 113%
CCOC(=O)CSc1c(N)c(C)nn1C.O=[N+]([O-])c1cc([N+](=O)[O-])c(O)c([N+](=O)[O-])c1,inactive: 105%,inactive: 103%,inactive: 98.9%,inactive: 105%,inactive: 105%,inactive: 106%,inactive: 82.8%,inactive: 97.3%,inactive: 100%,inactive: 113%
O=[N+]([O-])c1cc([N+](=O)[O-])c(C(F)(F)F)c([N+](=O)[O-])c1O,inactive: 96.6%,inactive: 87.5%,inactive: 94.5%,inactive: 102%,inactive: 107%,inactive: 85.4%,inactive: 109%,inactive: 103%,inactive: 97%,inactive: 114%
O=[N+]([O-])N(CCOC(N(F)F)(N(F)F)N(F)F)CC([N+](=O)[O-])([N+](=O)[O-])[N+](=O)[O-],inactive: 105%,inactive: 102%,inactive: 91.1%,inactive: 99.4%,inactive: 107%,inactive: 109%,inactive: 88.8%,inactive: 100%,inactive: 103%,inactive: 92.2%
CCN(CC)CCOC(=O)C(O)(c1cc(C)cc(C)c1)c1cc(C)cc(C)c1,inactive: 103%,inactive: 95.9%,inactive: 102%,inactive: 85.2%,inactive: 100%,inactive: 72.1%,inactive: 70.2%,inactive: 84.1%,inactive: 97.5%,–
CC[N+]([O-])(CC)Cc1ccccc1.O=[N+]([O-])c1cc([N+](=O)[O-])c(S(=O)(=O)O)c([N+](=O)[O-])c1,inactive: 106%,inactive: 95%,inactive: 109%,inactive: 111%,inactive: 98.4%,inactive: 78.7%,inactive: 118%,inactive: 100%,inactive: 106%,inactive: 119%
O=[N+]([O-])c1cc([N+](=O)[O-])c(O)c([N+](=O)[O-])c1.c1ccc([I+]c2ccccc2)cc1,inactive: 42.3%,inactive: 70.5%,inactive: 68.4%,inactive: 41.7%,inactive: 70.9%,inactive: 37.4%,inactive: 67.7%,inactive: 55.4%,inactive: 51.9%,inactive: 59.1%
NC(=NCCN/C(N)=N/[N+](=O)[O-])N[N+](=O)[O-],inactive: 94.5%,inactive: 105%,inactive: 113%,inactive: 82.3%,inactive: 103%,inactive: 93%,inactive: 85.6%,inactive: 79.4%,inactive: 90.1%,inactive: 110%
CC[N+](C)(CC)Cc1cc(Cc2ccccc2)ccc1OC(=O)N(C)C,inactive: 99%,inactive: 98.9%,inactive: 99.2%,inactive: 101%,inactive: 111%,inactive: 113%,inactive: 101%,inactive: 99.8%,inactive: 107%,inactive: 101%
CN(CCO)CCCl.O=[N+]([O-])c1cc([N+](=O)[O-])c(O)c([N+](=O)[O-])c1,inactive: 96.4%,inactive: 101%,inactive: 106%,inactive: 114%,inactive: 100%,inactive: 67%,inactive: 86%,inactive: 92.1%,inactive: 101%,inactive: 108%
Cc1c([N+](=O)[O-])c(C)c([N+](=O)[O-])c(Nc2c([N+](=O)[O-])c(C)c([N+](=O)[O-])c(C)c2[N+](=O)[O-])c1[N+](=O)[O-],active: -25.3%,active: -33.5%,active: -14.3%,active: -26.1%,active: 8.44%,active: -28%,active: -11.7%,active: 0.302%,active: 2.97%,active: -65.4%
CCN(CC)CCOC(=O)C(O)(c1ccccc1)c1cc(C)cc(C)c1C (stereo not drawn),inactive: 110%,inactive: 106%,inactive: 117%,inactive: 95.8%,inactive: 112%,inactive: 87.9%,inactive: 92.6%,inactive: 90.8%,inactive: 92.8%,inactive: 100%
OCCSCCO,inactive: 103%,inactive: 108%,inactive: 105%,inactive: 114%,inactive: 119%,inactive: 88.6%,inactive: 114%,inactive: 101%,inactive: 94.7%,inactive: 107%
O=C(O)C1(O)c2ccccc2-c2ccccc21,inactive: 98.4% and inactive: 98%,inactive: 92.9% and inactive: 86%,inactive: 97.1% and inactive: 116%,inactive: 99.3% and inactive: 93.6%,inactive: 102% and inactive: 104%,inactive: 93.1%,inactive: 59.2% and inactive: 88.7%,inactive: 81.9% and inactive: 97.4%,inactive: 98.2% and inactive: 99%,inactive: 98.4%
CCN(C)CC.O=[N+]([O-])c1cc([N+](=O)[O-])c(O)c([N+](=O)[O-])c1,inactive: 98.4%,inactive: 100%,inactive: 104%,inactive: 89%,inactive: 107%,inactive: 105%,inactive: 79.4%,inactive: 110%,inactive: 96.5%,inactive: 104%
O=[N+]([O-])c1cc([N+](=O)[O-])c(O)c([N+](=O)[O-])c1.c1ccnnc1,inactive: 119%,inactive: 94.6%,inactive: 106%,inactive: 106%,inactive: 102%,inactive: 114%,inactive: 77.7%,inactive: 101%,inactive: 101%,inactive: 112%
